Calls of active or inactive are those of the source. The calls are words filed in the database; no cut-off is given here.

By UniProt entry, the sequences of proteins in these tests, tags left out.
UniProt P28223, whole entry, looked up: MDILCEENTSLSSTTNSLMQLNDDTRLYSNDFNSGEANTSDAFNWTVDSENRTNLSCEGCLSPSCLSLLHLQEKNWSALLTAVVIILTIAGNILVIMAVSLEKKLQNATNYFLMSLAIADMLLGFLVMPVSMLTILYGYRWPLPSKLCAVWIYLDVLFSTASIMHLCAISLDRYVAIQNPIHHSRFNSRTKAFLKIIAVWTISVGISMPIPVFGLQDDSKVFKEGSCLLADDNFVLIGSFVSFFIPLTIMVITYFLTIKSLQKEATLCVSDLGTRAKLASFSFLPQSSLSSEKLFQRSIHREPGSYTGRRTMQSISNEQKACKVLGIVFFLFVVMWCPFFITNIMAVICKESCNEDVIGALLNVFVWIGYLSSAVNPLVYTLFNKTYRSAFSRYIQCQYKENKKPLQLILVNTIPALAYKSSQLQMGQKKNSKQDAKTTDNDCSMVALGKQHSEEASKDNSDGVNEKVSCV

The target in assay [1] is 5-hydroxytryptamine receptor 2A (Homo sapiens) (UniProt P28223). In words: Agonist activity at 5HT2A receptor (unknown origin) by cell based calcium mobilization assay relative to control.
For a further assay, the species on record is Rattus norvegicus. Nature of the assay: Selectivity index, ratio of EC50 for NET-mediated norepinephrine release in rat brain synaptosomes to EC50 for DAT-mediated dopamine release in rat brain synaptosomes.
Assay [2] has as its target 5-hydroxytryptamine receptor 2A (Homo sapiens) (UniProt P28223). In words: Agonist activity at 5HT2A receptor (unknown origin) at 10 uM by cell based calcium mobilization assay. (Calcium assays in cells follow changes in intracellular calcium, usually with a dye or a luminescent sensor.)
In assay [3] the target is Norepinephrine transporter (Rattus norvegicus) (UniProt Q9WTR4). Nature of the assay: Induction of NET-mediated norepinephrine release in rat brain synaptosomes by [3H]NE release assay relative to control.

As for `NCCc1c[nH]c2ccc(F)cc12`, the Emax in assay [1] stood at 110%.
Take `CNCCc1c[nH]c2ccccc12`: in assay [1], the Emax was found to be 96%.
Consider `Cc1cccc2c(CCN)c[nH]c12`, for which the Emax in assay [1] was 103%.
`NCCc1c[nH]c2cccc(F)c12`: in assay [1], the Emax turned out to be 108%.
Turning to `COc1ccc2c(CCN)c[nH]c2c1`, in assay [1], the Emax amounted to 111%.
On the same count and under the same terms, with `COc1cccc2[nH]cc(CCN)c12` the figure was 108%.
For the compound `CC(N)Cc1c[nH]c2ccc(Cl)cc12` (stereo not drawn), the Emax in assay [1] worked out at 105%. Also, in the assay filed under Rattus norvegicus, the Ratio EC50 was 63.
As for `Cc1ccc2[nH]cc(CCN)c2c1`, the Emax in assay [1] came out at 100%.
On to `CC(N)Cc1c[nH]c2ccc(F)cc12` (stereo not drawn), for which the Emax in assay [1] was found to be 107%. Also, in the assay listed under Rattus norvegicus, the Ratio EC50 amounted to 4.
On to `NCCc1c[nH]c2c(Cl)cccc12`, for which the Emax in assay [1] amounted to 102%.
With `CCC(N)Cc1c[nH]c2ccc(F)cc12` (stereo not drawn), the Emax in assay [1] was 87%. Besides, in the assay listed under Rattus norvegicus, the Ratio EC50 stood at 36.
Take `NCCc1c[nH]c2ccc(Br)cc12`: the Emax in assay [1] was found to be 108%.
The same measure, in the same setting: under `CCC(N)Cc1c[nH]c2ccc(Cl)cc12` (stereo not drawn) stands 87%.
`CC[C@H](N)Cc1c[nH]c2ccccc12`: the Emax result in assay [1] is “inactive”. Besides, the outcome in assay [2] was inactive. In addition, in assay [3], the Emax was determined as 75%.
As to `CCC(N)Cc1c[nH]c2ccccc12` (stereo not drawn), the values for the Emax in assay [1] and in assay [3] were 21% and 78%, respectively.
On to `Cc1ccc2c(CCN)c[nH]c2c1`, for which the Emax in assay [1] was found to be 110%.
Consider `CC[C@@H](N)Cc1c[nH]c2ccccc12`, for which the figures for the Emax in assay [1] and in assay [3] were 61% and 71%, respectively.
For `COc1cccc2c(CCN)c[nH]c12`, the Emax in assay [1] was determined as 107%.
With `NCCc1c[nH]c2ccc(Cl)cc12`, the Emax in assay [1] turned out to be 109%.
`NCCc1c[nH]c2cc(F)ccc12`: the Emax in assay [1] was determined as 101%.
The same measure, in the same setting: with `Cn1cc(CCN)c2ccccc21` the figure was 99%.

Broadly, the Emax is the greatest response seen or fitted, relative to the assay's reference.
